pIC50: −log10 of the molar value. “And” between values parts separate entries of the source, which are not always exact repeats. Identical values can stand only once.
Key:
Y641N EZH2 = Y641N EZH2 (Homo sapiens, UniProt Q15910, Y641N); experiment: Y641N EZH2 activity inhibition assay (as EZH2 assay, reconstituted H3K27Me2 oligonucleosomes as substrate); type: biochemical; conditions: read-out: Y641N EZH2 IC50, Y641N EZH2 mutant enzyme
EZH2 = EZH2 (Homo sapiens, UniProt Q15910); experiment: EZH2 activity inhibition assay (rPRC2, 3H SAM, biotinylated oligonucleosomes, FlashPlate); type: biochemical; conditions: read-out: EZH2 IC50; rPRC2, 2 nM EZH2, 0.2 μM 3H SAM, top concentration 80 μM

Protein sequences, listed by entry. Tags and fused reporters are not part of them. Lines headed by an entry give the natural chain unless they say otherwise; changes in a name come on top.
UniProt Q15910, whole entry: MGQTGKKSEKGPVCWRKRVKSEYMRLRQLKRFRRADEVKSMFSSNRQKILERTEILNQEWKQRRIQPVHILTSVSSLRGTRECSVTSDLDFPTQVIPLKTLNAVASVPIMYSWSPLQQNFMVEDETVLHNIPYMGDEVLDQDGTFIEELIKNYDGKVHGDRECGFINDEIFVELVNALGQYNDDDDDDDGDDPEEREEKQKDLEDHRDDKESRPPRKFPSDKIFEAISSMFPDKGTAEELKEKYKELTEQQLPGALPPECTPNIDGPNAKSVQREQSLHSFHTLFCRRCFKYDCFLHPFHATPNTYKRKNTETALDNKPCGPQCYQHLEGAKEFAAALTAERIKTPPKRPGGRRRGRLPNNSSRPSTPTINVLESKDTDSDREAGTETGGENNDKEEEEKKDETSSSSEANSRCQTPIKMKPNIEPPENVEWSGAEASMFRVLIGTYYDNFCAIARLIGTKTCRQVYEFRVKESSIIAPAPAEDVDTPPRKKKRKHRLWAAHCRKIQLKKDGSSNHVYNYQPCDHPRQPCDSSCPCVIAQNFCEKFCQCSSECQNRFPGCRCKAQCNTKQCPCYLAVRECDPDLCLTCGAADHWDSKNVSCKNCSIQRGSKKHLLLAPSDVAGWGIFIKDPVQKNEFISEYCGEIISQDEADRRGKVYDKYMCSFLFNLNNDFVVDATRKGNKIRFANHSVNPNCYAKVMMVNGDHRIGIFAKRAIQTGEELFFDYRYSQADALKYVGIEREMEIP
UniProt Q15910, whole entry Y641N: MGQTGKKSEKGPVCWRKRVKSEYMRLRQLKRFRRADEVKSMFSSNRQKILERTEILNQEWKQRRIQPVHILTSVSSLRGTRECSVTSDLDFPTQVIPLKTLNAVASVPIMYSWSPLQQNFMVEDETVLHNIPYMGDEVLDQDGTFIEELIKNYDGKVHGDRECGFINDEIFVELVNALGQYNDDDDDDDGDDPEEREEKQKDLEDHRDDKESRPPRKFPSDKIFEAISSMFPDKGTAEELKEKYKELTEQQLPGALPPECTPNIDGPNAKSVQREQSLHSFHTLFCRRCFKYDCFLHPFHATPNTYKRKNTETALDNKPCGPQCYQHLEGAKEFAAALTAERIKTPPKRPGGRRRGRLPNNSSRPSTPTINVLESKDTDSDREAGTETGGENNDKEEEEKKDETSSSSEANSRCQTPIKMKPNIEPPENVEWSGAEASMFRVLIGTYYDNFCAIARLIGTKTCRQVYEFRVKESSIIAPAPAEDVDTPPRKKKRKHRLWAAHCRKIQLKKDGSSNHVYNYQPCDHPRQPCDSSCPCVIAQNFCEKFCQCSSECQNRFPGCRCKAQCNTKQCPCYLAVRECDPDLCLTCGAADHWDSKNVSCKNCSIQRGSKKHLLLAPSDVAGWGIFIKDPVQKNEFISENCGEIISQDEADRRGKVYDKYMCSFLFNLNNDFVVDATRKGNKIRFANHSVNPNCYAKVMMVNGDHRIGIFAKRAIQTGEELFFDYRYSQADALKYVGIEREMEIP
UniProt O75530, whole entry partner: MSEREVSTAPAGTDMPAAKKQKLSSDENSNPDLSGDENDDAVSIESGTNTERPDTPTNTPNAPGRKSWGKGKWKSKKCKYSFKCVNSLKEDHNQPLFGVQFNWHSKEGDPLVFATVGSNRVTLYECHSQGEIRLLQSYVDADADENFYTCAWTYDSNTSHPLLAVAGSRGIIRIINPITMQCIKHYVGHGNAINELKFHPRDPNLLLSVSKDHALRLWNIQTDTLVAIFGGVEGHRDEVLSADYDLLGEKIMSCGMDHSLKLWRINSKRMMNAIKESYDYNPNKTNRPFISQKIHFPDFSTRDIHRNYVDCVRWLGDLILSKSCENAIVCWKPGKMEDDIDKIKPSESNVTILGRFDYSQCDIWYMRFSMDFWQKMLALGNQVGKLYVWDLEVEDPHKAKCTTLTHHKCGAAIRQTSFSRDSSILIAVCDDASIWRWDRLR
UniProt Q15022, whole entry partner: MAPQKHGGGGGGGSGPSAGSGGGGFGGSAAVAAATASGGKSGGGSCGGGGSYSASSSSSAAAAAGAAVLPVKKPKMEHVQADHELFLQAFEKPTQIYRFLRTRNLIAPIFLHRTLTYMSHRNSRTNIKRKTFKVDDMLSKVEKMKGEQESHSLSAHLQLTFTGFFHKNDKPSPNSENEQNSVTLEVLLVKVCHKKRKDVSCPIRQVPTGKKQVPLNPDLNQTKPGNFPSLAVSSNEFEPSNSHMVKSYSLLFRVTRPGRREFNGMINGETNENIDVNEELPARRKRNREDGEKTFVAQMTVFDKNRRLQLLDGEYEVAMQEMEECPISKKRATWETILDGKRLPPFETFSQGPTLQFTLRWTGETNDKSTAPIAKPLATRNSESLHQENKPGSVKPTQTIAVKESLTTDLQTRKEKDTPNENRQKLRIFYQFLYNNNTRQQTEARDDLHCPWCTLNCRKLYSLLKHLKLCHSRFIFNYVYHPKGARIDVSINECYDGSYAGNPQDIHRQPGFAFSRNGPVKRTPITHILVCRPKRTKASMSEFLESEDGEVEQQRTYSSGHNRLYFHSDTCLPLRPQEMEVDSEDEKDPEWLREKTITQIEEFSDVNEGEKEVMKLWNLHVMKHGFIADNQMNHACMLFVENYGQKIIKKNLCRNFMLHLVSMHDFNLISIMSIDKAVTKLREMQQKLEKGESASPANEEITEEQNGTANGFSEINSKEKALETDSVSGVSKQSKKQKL

| pIC50 (Y641N EZH2) | pIC50 (EZH2) | SMILES |
| --- | --- | --- |
| 5.00 to 6.00 and > 6.00 |  | Cc1cc(C)c(CNC(=O)c2ccc(C(C)Oc3ccc(F)cc3)cc2)c(=O)[nH]1 (single isomer, unassigned) |
|  | > 6.00 and 5.00 to 6.00 | Cc1cc(C)c(CNC(=O)c2c(C)cn(C(C)c3ccccc3)c(=O)c2C)c(=O)[nH]1 (single isomer, unassigned) |
| 5.00 to 6.00 | 5.00 to 6.00 and > 6.00 | Cc1cc(C)c(CNC(=O)c2ccc(C(C)Oc3ccc(C#N)cc3)cc2)c(=O)[nH]1 (single isomer, unassigned) |
|  | 5.00 to 6.00 and > 6.00 | Cc1cc(C)c(CNC(=O)c2ccc(C(C)Oc3ccccc3)c(C)c2)c(=O)[nH]1 (single isomer, unassigned) |
| 5.00 to 6.00 |  | Cc1cc(C)c(CNC(=O)c2ccc(C(C)Oc3cccc(F)c3)cc2)c(=O)[nH]1 (single isomer, unassigned) |
|  | 5.00 to 6.00 and > 6.00 | Cc1cc(C)c(CNC(=O)c2ccc(C(C)Oc3ccc(F)cc3F)cc2)c(=O)[nH]1 (single isomer, unassigned) |
| > 6.00 and 5.00 to 6.00 | > 6.00 and 5.00 to 6.00 | Cc1cc(C)c(CNC(=O)c2ccc(C(C)c3ccccc3)cc2C)c(=O)[nH]1 (single isomer, unassigned) |

Reference: patent publication US9206128B2 (Constellation Pharmaceuticals, Inc., priority 2011, dated 2015)
